Measured values reported in patent US9745328B2, “Flap modulators” (JANSSEN PHARMACEUTICA NV, priority 2013, dated 2017).

Sequences of proteins named here, by UniProt entry; tags and fusion partners are left off. A change or cut given only in a name is not applied to a line headed by its entry.
UniProt P20292: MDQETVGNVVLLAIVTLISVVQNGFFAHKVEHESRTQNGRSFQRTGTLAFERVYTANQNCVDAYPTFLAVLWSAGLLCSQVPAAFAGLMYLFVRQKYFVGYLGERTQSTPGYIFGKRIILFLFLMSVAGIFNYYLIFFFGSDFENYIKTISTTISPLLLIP

Target: human FLAP (Homo sapiens (Human), UniProt P20292)
Experiment: FLAP binding assay (HTRF format)
Conditions: not given
Method: The ability of the compounds of the present invention to treat a FLAP-mediated disease and/or disorder, or associated symptoms or complications thereof, was determined using the following procedures. Binding assay data represent the average value obtained from two different assay plates, with samples run in duplicate on each plate. Human whole blood assay data represent a single replicate on an assay plate using whole blood from at least one healthy donor.
Data are expressed as a HTRF ratio.

Row | Compound | Ki [nM]
1 | C[C@H](CC#N)NS(=O)(=O)c1ccccc1-c1ccc(-c2cnc(N)cn2)c(F)c1 [Example 170, (R)-4′-(5-aminopyrazin-2-yl)-N-(1-cyanopropan-2-yl)-3′-fluoro-[1,1′-biphenyl)-2-sulfonamide] | 1.3

Same assay, conditions: Table 6 (additional runs); human FLAP wild type, HTRF; read-out: FLAP Binding wild type HTRF Ki

Row | Ki [nM] | Compound
2 | 2.3 | Nc1cnc(-c2ccc(-c3ccccc3S(=O)(=O)N3CCCC(O)C3)cc2F)cn1 (racemic) [Example 70, racemic 1-{[4′-(5-Aminopyrazin-2-yl)-3′-fluorobiphenyl-2-yl]sulfonyl}piperidin-3-ol]
3 | 1.7 | Nc1cnc(-c2ccc(-c3ccccc3S(=O)(=O)N3CCCC(CO)C3)cc2F)cn1 (racemic) [Example 76, racemic (1-{[4′-(5-Aminopyrazin-2-yl)-3′-fluorobiphenyl-2-yl]sulfonyl}piperldin-3-yl)methanol]
4 | 82.2 | Nc1cnc(-c2ccc(-c3ccccc3S(=O)(=O)N[C@H]3CCCCNC3=O)cc2F)cn1 (stereo in doubt) [Example 28, (S)-4′-(5-Aminopyrazin-2-yl)-3′-fluoro-N-[(3S)-2-oxoazepan-3-yl]biphenyl-2-sulfonamide]
5 | 6.2 | CC(CO)NS(=O)(=O)c1ccccc1-c1ccc(-c2cnc(N)cn2)c(F)c1 (stereo in doubt) [Example 32, 4′-(5-Aminopyrazin-2-yl)-3′-fluoro-N-[(1S)-2-hydroxy-1-methylethyl]piphenyl-2-sulfonamide]
6 | 2.3 | C[C@H](NS(=O)(=O)c1ccccc1-c1ccc(-c2cnc(N)cn2)c(F)c1)c1ccccc1 [Example 24, (R)-4′-(5-Aminopyrazin-2-yl)-3′-fluoro-N-[(1R)-1-phenylethyl]biphenyl-2-sulfonamide]
7 | 3.2 | C[C@@H](CO)NS(=O)(=O)c1ccccc1-c1ccc(-c2cnc(N)cn2)c(F)c1 [Example 25, (R)-4′-(5-Aminopyrazin-2-yl)-3′-fluoro-N-[(1R)-2-hydroxy-1-methylethyl]piphenyl-2-sulfonamicie]
8 | 280 | Nc1cnc(-c2ccc(-c3ccccc3S(=O)(=O)N3CC[C@@H](N)C3)cc2F)cn1 [Example 92, (R)-5-(2′-((3-aminopyrrolidin-1-yl)sulfonyl)-3-fluoro-[1,1′-biphenyl]-4-yl)pyrazin-2-amine]
9 | 83.3 | Nc1cnc(-c2ccc(-c3ccccc3S(=O)(=O)N3CC[C@H](N)C3)cc2F)cn1 [Example 93, (S)-5-(2′-((3-aminopyrrolidin-1-yl)sulfonyl)-3-fluoro-[1,1′-biphenyl]-4-yl)pyrazin-2-amine]
